The values that follow come from US10100058B2, “Fused heterocyclic compounds as CaM kinase inhibitors” (Gilead Sciences, Inc., priority 2016, dated 2018).

In the assay the target is recombinant CaMKIIδ (Homo sapiens (Human), UniProt Q13557). As to the kind of experiment: CaMKIIδ biochemical assay (HTRF). The settings on record: 10 pM CaMKIIδ, 110 nM calmodulin, 12 μM ATP, 1 hour; read-out: CAMKIID-HTRF-384V2 (IC50 - nM). Here is the method: CaMKIIδ Biochemical Assay
The biochemical activity of recombinant CaMKIIδ was measured by monitoring the phosphorylation of a target peptide using Homogenous Time Resolved Fluorescence (HTRF) technology from CisBio Bioassays.
Turning to `O=C(NCC1CCCCN1)c1ccnc(-c2cnn3ccc(-c4ccccc4)nc23)c1` (stereo not drawn) [Example 40, 2-(5-phenylpyrazolo[1,5-a]pyrimidin-3-yl)-N-(piperidin-2-ylmethyl)isonicotinamide], the IC50 (usually the concentration needed to halve the response being measured) was 268 nM.

On to `N[C@@H]1CCC[C@H]1NC(=O)c1ccnc(-c2cnn3ccc(-c4ccccc4)nc23)c1` [Example 71, N-((1R,2R)-2-aminocyclopentyl)-2-(5-phenylpyrazolo[1,5-a]pyrimidin-3-yl)isonicotinamide], for which the IC50 stood at 547 nM.

For the molecule `N[C@@H]1CCC[C@@H]1NC(=O)c1ccnc(-c2cnn3ccc(-c4ccccc4)nc23)c1` [Example 72, N-((1S,2R)-2-aminocyclopentyl)-2-(5-phenylpyrazolo[1,5-a]pyrimidin-3-yl)isonicotinamide], the IC50 came to 106 nM.
